Laboratory results as given in PubChem BioAssay AID1645860 (Buhrlage Lab, Dana-Farber Cancer Institute and Novartis …, 2021).
This is a selection; strong and weak results do not stand in their true shares. The source made the active and inactive calls. No stated cut-off is given here; in the data, active means inhibition above about 30%; inactive means the rest.

By UniProt entry, the sequences of proteins in these tests, tags left out. Where a name states a change or a piece, a line headed by the entry shows the natural chain unless it says otherwise.
UniProt Q70CQ3: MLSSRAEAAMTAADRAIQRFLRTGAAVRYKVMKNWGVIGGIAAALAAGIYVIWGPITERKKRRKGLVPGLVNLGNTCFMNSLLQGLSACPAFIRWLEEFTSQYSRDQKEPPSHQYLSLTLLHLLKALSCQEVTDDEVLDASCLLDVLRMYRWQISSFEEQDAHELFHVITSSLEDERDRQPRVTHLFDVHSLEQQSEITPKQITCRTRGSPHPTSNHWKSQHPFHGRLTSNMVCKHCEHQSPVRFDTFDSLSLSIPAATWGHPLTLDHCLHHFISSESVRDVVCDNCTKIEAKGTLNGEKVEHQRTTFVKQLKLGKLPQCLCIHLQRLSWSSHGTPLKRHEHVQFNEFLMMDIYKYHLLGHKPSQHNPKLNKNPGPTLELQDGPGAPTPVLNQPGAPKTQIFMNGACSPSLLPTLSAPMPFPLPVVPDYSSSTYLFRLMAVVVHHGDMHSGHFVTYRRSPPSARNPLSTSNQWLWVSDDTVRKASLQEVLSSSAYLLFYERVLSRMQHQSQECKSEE

Molecular target: Ubiquitin carboxyl-terminal hydrolase 30 (Homo sapiens) (UniProt Q70CQ3)
Assay: inhibitors of human USP30 deubiquitinase (AID 1645860)
Conditions: purified USP30, Ub-rhodamine cleavage fluorescence; at 25 µM; active compounds read high

SMILES | inhibition
CS(=O)(=O)c1ccc(C(=O)N(Cc2cccnc2)C2CCN(CCc3ccc(Cl)cc3)CC2)cc1 | inactive: -184%
COc1ccc(CCN2CCC(N(Cc3ccco3)C(=O)c3ccc(S(C)(=O)=O)cc3)CC2)cc1 | inactive: -79.3%
CN1C(=O)C2C(NC(=NCc3ccco3)N2CCc2ccccc2)N(C)C1=O (stereo unspecified) | inactive: -18.4%
N#Cc1cccc(C(=O)N(Cc2ccco2)C2CCN(CCc3ccccn3)CC2)c1 | inactive: 0.231%
N#Cc1cccc(C(=O)N(Cc2cccnc2)C2CCN(CCc3ccccn3)CC2)c1 | inactive: -113%
CS(=O)(=O)c1ccc(C(=O)N(Cc2ccco2)C2CCN(CCc3ccccn3)CC2)cc1 | inactive: -101%
COc1ccc(CCN2CCC(N(Cc3cccnc3)C(=O)c3cccc(C#N)c3)CC2)cc1 | inactive: -93.8%
O=C(c1ccc2c(c1)OCO2)N(Cc1ccco1)C1CCN(CCc2ccccn2)CC1 | inactive: -75.8%
O=C(COC(=O)C(O)(c1ccccc1)c1ccccc1)NCc1ccc2c(c1)OCO2 | inactive: -23.6%
N#Cc1cccc(C(=O)N(Cc2ccco2)C2CCN(CCc3ccc(Cl)cc3)CC2)c1 | inactive: -58.3%
Cc1[nH]c2c(N(C(=O)Nc3ccccc3)C3CCN(Cc4ccccc4)CC3)cccc2c1C | inactive: -30.9%
